ChEMBL document CHEMBL2346523, “Synthesis and in vitro and in vivo characterization of highly β1-selective β-adrenoceptor partial agonists” (J Med Chem, 2013)

Protein sequences, listed by entry. Tags and fused reporters are not part of them.
UniProt P08588, whole entry: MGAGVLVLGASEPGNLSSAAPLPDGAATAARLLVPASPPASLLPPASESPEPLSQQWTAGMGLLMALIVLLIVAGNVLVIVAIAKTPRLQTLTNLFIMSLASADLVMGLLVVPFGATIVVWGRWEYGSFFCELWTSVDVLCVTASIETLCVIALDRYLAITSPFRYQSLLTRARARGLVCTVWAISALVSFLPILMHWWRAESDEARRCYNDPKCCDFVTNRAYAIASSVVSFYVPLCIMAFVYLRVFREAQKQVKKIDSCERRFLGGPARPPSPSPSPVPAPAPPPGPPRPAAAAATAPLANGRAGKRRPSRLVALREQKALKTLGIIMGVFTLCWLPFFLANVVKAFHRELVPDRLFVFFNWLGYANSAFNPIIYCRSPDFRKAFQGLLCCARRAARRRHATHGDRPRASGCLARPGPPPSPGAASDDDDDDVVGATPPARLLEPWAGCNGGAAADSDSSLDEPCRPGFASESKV

Assays:
[1] = target: T1, Beta-1 adrenergic receptor (Homo sapiens, UniProt P08588); test: Displacement of [3H]-CGP12177 from human beta1 adrenoceptor expressed in CHOK1 cells after 2 hrs by scintillation counting analysis; format: cell-based, CHO-K1
[2] = target: T1, Beta-1 adrenergic receptor; test: Partial agonist activity at human beta1 adrenoceptor expressed in CHOK1 cells assessed as induction of [3H]cAMP accumulation after 5 hrs; format: functional, cell-based, CHO-K1
[3] = target: T1, Beta-1 adrenergic receptor; test: Antagonist activity at human beta1 adrenoceptor expressed in CHOK1 cells assessed as inhibition of cimaterol-induced [3H]cAMP accumulation incubated for 15 mins prior to cimaterol induction measured after 5 hrs; format: functional, cell-based, CHO-K1

## N#Cc1cc(OCCOCC2CC2)ccc1OCC(O)CNCCNC(=O)Nc1ccc(O)cc1 (stereo not drawn) [LK-204545]
[1]
  Kd: 9.12 nM
[2]
  EC50: 2.29 nM
[3]
  Kd: 1.7 nM
